Earlier results in patent publication US20040137514A1, “Use of antibodies against specific mhc-peptide complexes” (priority 2000, published 2004).

Test system: T cells of RA patients
Conditions: cited from earlier work

SMILES	recognition by T cells of RA patients
CC(C)C[C@H](NC(=O)[C@@H](NC(=O)[C@H](Cc1ccccc1)NC(=O)[C@H](CO)NC(=O)[C@H](CCCNC(=N)N)NC(=O)CNC(=O)[C@H](Cc1ccccc1)NC(=O)[C@@H](NC(=O)[C@@H]1CCCN1)[C@@H](C)O)[C@@H](C)O)C(=O)N[C@@H](C)C(=O)N[C@@H](CO)C(=O)N[C@@H](CO)C(=O)N[C@@H](CCC(=O)O)C(=O)O [HC gp-39^259-271]	recognized
CC[C@H](C)[C@H](NC(=O)[C@H](CCCCN)NC(=O)[C@H](CO)NC(=O)[C@H](Cc1ccccc1)NC(=O)[C@H](CCCNC(=N)N)NC(=O)[C@H](CCC(N)=O)NC(=O)[C@@H](N)CO)C(=O)N[C@@H](C)C(=O)N[C@@H](CO)C(=O)N[C@@H](CC(N)=O)C(=O)N[C@H](C(=O)N[C@@H](CCC(N)=O)C(=O)N[C@@H](CO)C(=O)N[C@@H](CCCNC(=N)N)C(=O)O)[C@@H](C)O [HC gp-39^103-116]	recognized
